Values quoted from earlier work in patent US20220226508A1, “METHODS AND COMPOSITIONS FOR TREATING EPILEPSY” (THE REGENTS OF THE UNIVERSITY OF CALIFORNIA, priority 2019, published 2022).
Where two headings read alike, the source gives them in different places.

Chains of the proteins cited; added tags and fusions are not shown. Residues count along the entry.
UniProt P41595, whole entry: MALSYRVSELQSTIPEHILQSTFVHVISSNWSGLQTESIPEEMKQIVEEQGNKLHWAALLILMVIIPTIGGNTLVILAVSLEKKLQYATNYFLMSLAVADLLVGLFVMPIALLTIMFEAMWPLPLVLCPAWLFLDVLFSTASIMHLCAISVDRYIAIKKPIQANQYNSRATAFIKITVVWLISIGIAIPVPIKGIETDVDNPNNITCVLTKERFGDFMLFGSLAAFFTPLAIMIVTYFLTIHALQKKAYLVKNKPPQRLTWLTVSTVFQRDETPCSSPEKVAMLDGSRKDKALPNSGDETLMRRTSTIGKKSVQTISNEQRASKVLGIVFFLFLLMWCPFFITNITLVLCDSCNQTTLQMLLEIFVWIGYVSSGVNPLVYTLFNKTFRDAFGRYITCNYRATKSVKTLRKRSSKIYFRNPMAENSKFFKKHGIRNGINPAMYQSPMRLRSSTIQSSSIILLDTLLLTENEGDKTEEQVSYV
UniProt P28335, 33-458: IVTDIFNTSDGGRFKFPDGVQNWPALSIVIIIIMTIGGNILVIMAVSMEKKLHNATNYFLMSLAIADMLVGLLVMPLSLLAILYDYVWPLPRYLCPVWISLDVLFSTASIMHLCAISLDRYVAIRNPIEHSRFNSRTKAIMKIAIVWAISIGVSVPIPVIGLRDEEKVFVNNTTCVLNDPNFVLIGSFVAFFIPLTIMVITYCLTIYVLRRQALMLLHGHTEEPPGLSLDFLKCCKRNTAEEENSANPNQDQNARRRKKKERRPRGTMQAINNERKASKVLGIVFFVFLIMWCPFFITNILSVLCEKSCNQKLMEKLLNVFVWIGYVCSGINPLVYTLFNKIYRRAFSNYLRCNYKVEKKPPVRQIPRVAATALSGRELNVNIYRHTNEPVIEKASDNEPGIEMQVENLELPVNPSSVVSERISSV

Tests used:
human 5-HT2BR = target: T1, human 5-HT2BR (Homo sapiens, UniProt P41595)
T1 construct: expressed in transfected cells

human 5-HT2CR = target: T2, human 5-HT2CR (Homo sapiens, UniProt P28335); details: known drugs and commercial compounds; read-out: binding affinity (Ki) 5-HT2C / 5-HT2CR; cited from earlier work
T2 construct: expressed in transfected cells

Cl.Clc1cccc(N2CCNCC2)c1
Ki (human 5-HT2BR; known drugs and commercial compounds; read-out: binding affinity (Ki) 5-HT2B / 5-HT2BR; cited from earlier work): 30.3 nM | Ki (human 5-HT2CR): 13 nM

CC(N)Cc1c[nH]c2ccc(OCc3cccs3)cc12 (stereo not drawn) [reference compound]
Ki (human 5-HT2BR; read-out: binding affinity (Ki) 5-HT2B / 5-HT2BR; known drugs and commercial compounds; cited from earlier work): 3.2 nM
